From doi:10.1101/2024.05.30.596569v1 (bioRxiv, 2024)

Experiment: Solubility in water
Format: physicochemical
Conditions: unformulated compounds, statement in words

C[C@@H](O)[C@@H]1NC(=O)[C@H]2NC(=O)[C@H](CC(N)=O)NC(=O)[C@@H](N)Cc3c[nH]c4c(cccc34)OC2c2c[nH]c3cc(ccc23)C(CCCN)[C@@H](C(=O)N[C@@H](CCCNC(=N)N)C(=O)N[C@@H](Cc2c[nH]c3ccccc23)C(=O)O)NC1=O (stereo partly shown)
solubility in water: highly soluble in water
